Source: patent US20080193514A1, “COMPOSTIONS AND METHODS FOR IONTOPHORESIS DELIVERY OF ACTIVE INGREDIENTS THROUGH HAIR FOLLICLES” (TRANSCU LTD., priority 2006, published 2008)

Experiment: Confirmation test of delivery of liposome in vitro, CLSM of NBD and Sulfo rhodamine B (Test Example 4)
Conditions: in vitro rat skin, 1.41 mA (0.45 mA/cm^2) for 1 hour

Substance: Sulfo rhodamine B
- delivery into hair follicles (fluorescence detected by CLSM): not detected in hair follicles
